The values that follow are results of earlier work, collected in patent US7476508B2, “Method of screening agent for improving memory and learning ability” (Astellas Pharma Inc., priority 2003, dated 2009).

For this data set the following is noted: in vivo; cited from earlier work.

Regarding “Pregnenolone sulfate [PS, reference compound]”, the “transferability into the brain” value is given as “low transferability into the brain”.
